{"source": "paper PMC7448123", "about": "“Ru(II) Complexes Bearing O, O-Chelated Ligands Induced Apoptosis in A549 Cells through the Mitochondrial Apoptotic Pathway” (Bioinorganic Chemistry and Applications, 2020)", "key": {"[1]": {"test_system": "A549 (human lung carcinoma)", "test": "MTT cytotoxicity assay, A549", "type": "cell-based", "details": "48 h"}, "[2]": {"test": "Lipophilicity, octanol/water partition (ICP-MS)", "type": "physicochemical", "details": "octanol/aqueous NaCl, 48 h shaking, 25°C", "procedure": "Log Po/w is the partition coefficient between octanol and water. Briefly, a suitable amount of stock solution of the Ru(II) complex in aqueous NaCl was added to an equal volume of octanol, and the mixture was shaken for 48 h at 200 rpm at 25°C to allow partitioning. The aqueous layer was separated from the octanol layer after the sample was centrifuged at 3000 rpm for 10 min. The Ru(II) content in the aqueous layer was measured by ICP-MS. Finally, Log Po/w values were calculated according to the equation of Log Po/w = Log ([Ru]o/[Ru]w)."}, "A549 cells [3]": {"test_system": "A549 cells", "test": "Cellular uptake and subcellular distribution by ICP-MS", "type": "cell-based, human", "details": "20 μM, 6 h", "procedure": "A549 cells were seeded into six-well plates (5.0 × 10^5 cells per well) and grown overnight at 37°C in a 5% CO2 incubator. The cells were incubated with the different concentrations (5, 10, 15, and 20 μM) of Ru(II) complexes for different time intervals (1, 3, and 6 h). After the incubation, the cells were harvested and washed twice with PBS. Cell Mitochondria Isolation Kit was used to extract the nuclear, mitochondrial, and cytoplasmic fractions of the A549 cells. The pellets were digested with 3 mL concentrated nitric acid and 1 mL perhydrol for 24 h and then diluted to 5 mL with ultrapure water. Finally, ICP-MS was used to determine the amount of Ru(II) complexes uptaken by A549 cells.\nIt is generally acknowledged that the cellular uptake feature of transition metal-based compounds is an essential factor for their biological activities. As repeatedly reported by previous ruthenium complex-related studies, the more cellular uptake results in higher cytotoxicity. The cellular ruthenium concentration was determined by using ICP-MS after 1, 3, and 6 h of exposure to 5, 10, 15, and 20 μM Ru(II) complexes (Figure 2), respectively, and the results were reported as ng of ruthenium per 10^6 cell number. […] The subcellular distribution of Ru-1 in A549 cells was further studied."}, "A549 cells [4]": {"test_system": "A549 cells", "test": "Mitochondrial membrane potential, JC-1 flow cytometry", "type": "cell-based, human", "details": "12 h", "procedure": "The mitochondrial membrane potential (MMP) of A549 cells was analyzed by using an inverted fluorescence microscope and flow cytometry. […] For microscope observation, the collected cells were incubated in complete medium containing JC-1 (10 μg/mL) for 30 min and washed with PBS twice and then imaged by an inverted fluorescence microscope (Nikon, Japan). For flow cytometry analysis, the cells were trypsinized and washed twice with PBS and then incubated in 500 μL PBS containing JC-1 (10 μg/mL) for 30 min at 37°C. The cells were analyzed by flow cytometer immediately. The intracellular ROS level of A549 cells was detected after DCFH-DA stain, as illustrated in our new publication."}}, "data": [{"molecule": "O=C1[O][Ru][O]c2ccccc21.c1ccc(-c2ccnc3c2ccc2c(-c4ccccc4)ccnc23)cc1.c1ccc(-c2ccnc3c2ccc2c(-c4ccccc4)ccnc23)cc1", "note": "[Ru-1, [Ru(dip)2(SA)]]", "values": [{"measurement": "SI (selectivity index) = IC50 (BEAS-2B)/IC50 (A549)", "setting": "[1]", "value": 4.9}, {"measurement": "log Po/w", "setting": "[2]", "value": "1.4 ± 0.1"}, {"measurement": "cell entry relative to Ru-2", "setting": "A549 cells [3]", "value": 1.8, "unit": "fold"}, {"measurement": "percentage of green fluorescence (JC-1, MMP decline)", "setting": "A549 cells [4]; 5 μM", "value": 28.2, "unit": "%"}, {"measurement": "percentage of green fluorescence (JC-1, MMP decline)", "setting": "A549 cells [4]; 10 μM", "value": 38.4, "unit": "%"}, {"measurement": "percentage of green fluorescence (JC-1, MMP decline)", "setting": "A549 cells [4]; 20 μM", "value": 70.5, "unit": "%"}]}]}
